These are literature values, as cited in patent US20180136238A1 (priority 2016, published 2018).

For this data set the following is noted: reference LD50 value.

Regarding arsenocholine, where the note is “unit inferred”, the LD50 value is 6500 mg/kg.
With arsenous acid, the LD50 dose (species and route not given) is on record as 20 mg/kg.
